Target: Bovine serum albumin (BSA) (Bos taurus, UniProt P02769)
Assay: biochemical
Experimental: A minimum of 2 independent plates were run for each protein-ligand combination, with 3 replicates per sample on each plate. Controls on each plate included a no protein control, matching vehicle control (no ligand), and 3 concentrations of OA (1, 2, 3 mM) and/or PFHxA (0.3, 1, 3 mM) as positive controls. The concentration of albumin that yielded maximal signal-to-noise ratio was optimized for each species. […] For concentration-response analyses, PFAS stock solutions were serially diluted into HBS.

Chains of the proteins cited; added tags and fusions are not shown. Residues count along the entry.
UniProt P02769, 25-607: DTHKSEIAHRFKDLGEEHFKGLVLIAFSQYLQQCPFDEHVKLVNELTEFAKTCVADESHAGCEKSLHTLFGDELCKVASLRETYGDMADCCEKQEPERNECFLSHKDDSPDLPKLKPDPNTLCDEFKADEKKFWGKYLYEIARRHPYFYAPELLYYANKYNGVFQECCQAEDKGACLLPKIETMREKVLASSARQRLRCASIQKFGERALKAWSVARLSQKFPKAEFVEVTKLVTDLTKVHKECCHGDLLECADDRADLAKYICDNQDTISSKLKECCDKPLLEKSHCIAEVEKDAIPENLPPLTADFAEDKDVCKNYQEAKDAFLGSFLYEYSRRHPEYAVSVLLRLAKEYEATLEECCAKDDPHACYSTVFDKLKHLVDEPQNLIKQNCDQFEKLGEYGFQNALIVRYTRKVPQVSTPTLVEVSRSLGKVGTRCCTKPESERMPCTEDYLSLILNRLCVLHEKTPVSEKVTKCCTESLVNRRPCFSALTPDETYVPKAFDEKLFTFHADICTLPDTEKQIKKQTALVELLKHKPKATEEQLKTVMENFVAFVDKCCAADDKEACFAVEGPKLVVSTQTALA

SMILES: O=S(=O)(O)C(F)(F)C(F)(F)C(F)(F)C(F)(F)C(F)(F)C(F)(F)C(F)(F)C(F)(F)F [PFOS, perfluorooctanesulfonic acid]
- Kd: 860 µM
